The numbers were not newly measured in US20170135979A1, “PDE-DELTA INHIBITOR FOR THE TREATMENT OF CANCER” (Macau University of Science and Technology, priority 2015, published 2017), which cites them from elsewhere.

Protein sequences, listed by entry. Tags and fused reporters are not part of them. Lines headed by an entry give the natural chain unless they say otherwise; changes in a name come on top.
UniProt O43924: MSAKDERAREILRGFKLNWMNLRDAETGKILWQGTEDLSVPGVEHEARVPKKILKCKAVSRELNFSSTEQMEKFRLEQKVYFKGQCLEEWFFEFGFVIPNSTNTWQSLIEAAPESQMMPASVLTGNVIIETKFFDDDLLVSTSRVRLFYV

For this data set, the target named is K-RAS-PDEδ interaction (Homo sapiens, UniProt O43924). Conditions: cited from earlier work.

In the case of `c1ccc(Cn2c(-c3ccc(OC[C@H](C4CCNCC4)n4c(-c5ccccc5)nc5ccccc54)cc3)nc3ccccc32)cc1` [Deltarasin], the K-RAS-PDEδ interaction result is on record as “inhibited”.
